# This is a selection; strong and weak results do not stand in their true shares. The source made the active and inactive calls.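 The calls were made as follows: active = inhibition above the campaign cutoff, the mean of compounds within control limits plus 3 SD (cut at about 14% in these data); inactive = the rest.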
# The chains behind the UniProt entries cited, without tags or fusion partners. Where a name states a change or a piece, a line headed by the entry shows the natural chain unless it says otherwise.
# UniProt P02675: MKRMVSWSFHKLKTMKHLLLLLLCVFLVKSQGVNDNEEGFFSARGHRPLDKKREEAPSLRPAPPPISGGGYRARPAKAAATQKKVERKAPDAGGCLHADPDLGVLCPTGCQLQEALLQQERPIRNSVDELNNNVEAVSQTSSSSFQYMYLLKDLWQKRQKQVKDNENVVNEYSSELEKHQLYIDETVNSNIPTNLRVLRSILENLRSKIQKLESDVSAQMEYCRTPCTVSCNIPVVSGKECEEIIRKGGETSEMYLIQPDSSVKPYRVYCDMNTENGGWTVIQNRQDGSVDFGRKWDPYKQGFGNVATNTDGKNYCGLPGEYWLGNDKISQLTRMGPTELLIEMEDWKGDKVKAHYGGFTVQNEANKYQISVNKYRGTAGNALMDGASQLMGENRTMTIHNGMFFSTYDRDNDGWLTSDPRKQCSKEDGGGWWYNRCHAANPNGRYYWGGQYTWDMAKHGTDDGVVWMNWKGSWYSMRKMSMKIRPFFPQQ
# Biological target: Fibrinogen beta chain (Homo sapiens) (UniProt P02675)
# Assay: Tn7 displacement from DD(E) complex – biochemical, fluorescence polarization, human fibrin, Tn7 probe, confirmation (AID 720628);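 also: 100% = median FP of high control wells holding Aha-Tn7 inhibitor peptide; displacers lower polarization since freed probe rises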
# Details: FP displacement of TRITC-Tn7 peptide from DD(E); at 8.3 µM; active compounds read high; 0% set at plate's compound-well median
smiles,measurement,value
Nc1cccc2c([As](=O)(O)O)cccc12,inhibition,inactive: 3.01%
